Compounds with a hit are over-represented: about 2.3% of the library has one in this group of screens.
GRP78 ERSR act: ER stress response induction in glioma. U87-MG GRP78 promoter luciferase reporter, 16 h. Potency, µM, without a hit: at the top dose activation, most hits filed as activators. actives 0.02% (n = 420,000); also: potency is read from the fitted curve at half-maximal effect; series mostly up to about 76 µM; % of control where 0% means no effect; nearly all actives have a fitted effect of over 35% in size
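Stably transfected U87-MG human glioma cells carrying a GRP78-based luminescent sensor were seeded at 1000 cells/well, pin-dosed with compounds and incubated 16 h. Luciferase reagent was then added, and end-point luminescence was read after 10 min at room temperature.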
A549 viability: counter-screen for Nrf2 inhibitors: cytotoxicity in A549 cells; A549 ARE-Fluc cells, CellTiter-Fluor viability, 18-24 h; Potency, µM (top dose mostly 46 µM), for the others: top-dose activity change, negative = cytotoxicity, actives largely listed as inhibitors; actives 0.16% (n = 390,000); also: potency is read from the fitted curve at half-maximal effect; % is scaled to controls: 0 for no effect and ±100 for the full control effect
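A549 ARE_Fluc cells in 5% FBS OPTI-MEM were exposed to compounds in concentration-response for 18-24 h at 37 deg C. Viability was read by CellTiter-Fluor fluorescence (Ex 405/Em 525) after 30 min, before the luciferase read.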
Nrf2 ARE act: activators of Nrf2 (ARE) signaling | Potency, µM (titrated, usually from 46.1 µM), for inactives: at the top dose activation, usual class: activators | actives 0.31% (n = 410,000) | AREc32 ARE-luciferase reporter (MCF7-derived line), luminescence, 24 h; also: potency is read from the fitted curve at half-maximal effect; % of control where 0% means no effect; nearly all actives have a fitted effect of over 65% in size
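AREc32_Fluc, 1000 cells/well, OPTI-MEM + 5% FBS, o/n 37 deg C 5% CO2; 23 nL cpd by pin tool, 24 hr; Steady-Glo 30 min RT, luminescence.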
miR-21 reporter: raises the signal of a miR-21 reporter | HeLa miR-21 FLuc reporter, luciferase, 48 h | Potency, µM (doses to about 38.3 µM), for the others: at the highest dose reporter change, positive = more light | 340,000 tested, under 10 active | AID 2288; active = well fitted rising curve with a large enough effect; inconclusive = small, poorly fitted or top-dose-only effect; inactive = no such curve, though single readings can be large or run the other way;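 also: % of control where 0% means no effect; miR-21 action dims this reporter so a rising signal means less miR-21 action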
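Compounds were titrated across several concentrations (up to approximately 40 uM) and incubated 48 hours with HeLa miR-21-FLuc reporter cells (miR-21 target sequence downstream of FLuc, endogenous miR-21). Readout was firefly luciferase luminescence after lytic detection reagent.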
Nrf2 inh: inhibitors of Nrf2 signaling | Potency, µM (doses to about 46 µM), for inactives: at the top dose activity change, negative = inhibition, most hits filed as inhibitors | AID 504444 | A549 ARE-Fluc reporter, luciferase luminescence, 18-24 h | actives 2.1% (n = 360,000); also: potency is read from the fitted curve at half-maximal effect; % is scaled to controls: 0 for no effect and ±100 for the full control effect; nearly all actives have a fitted effect of over 60% in size
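Cells were seeded and rested 2 h, then exposed to compounds for 18-24 h. CellTiter-Fluor was read first as a viability measure. BugLite was added 15 min before the final luminescent read of ARE-luciferase activity in A549 cells.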
Mito fusion act: inhibitors of mitochondrial division or activators of mitochondrial fusion | Potency, µM (highest dose often 46.1 µM), without a hit: at the top dose growth rescue (activation), hits mostly activators | S. cerevisiae fusion-defective mutant growth rescue, CellTiterGlo 48 h | actives 0.23% (n = 320,000); also: potency is read from the fitted curve at half-maximal effect; % of control where 0% means no effect; nearly all actives have a fitted effect of over 45% in size
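Temperature-sensitive fusion-defective S. cerevisiae (e.g. fzo1-1, mgm1-5) were grown with compound in YPEG medium (3% ethanol, 3% glycerol) for 48 hours at 37C. Growth rescue was measured as viability by CellTiterGlo luminescence after 10 minutes at ambient.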
* marks the source's active call; other numbers are inactive results; ? = inconclusive; · = no result given. Unless noted, calls follow the shape of the dose curve; as a rule, active = well fitted curve in the direction sought with a large enough effect; inconclusive = small, poorly fitted or top-dose-only effect, or another doubt; inactive = no such curve, though single readings can be large; an effect the other way counts as inactive or inconclusive.

SMILES	GRP78 ERSR act	A549 viability	Nrf2 ARE act	miR-21 reporter	Nrf2 inh	Mito fusion act
COC(=O)C1(C)CCc2cc(OC)ccc2C1=O (configuration not stated)	0%	-5%	0%	-17%	3%	-2%
CC(OC(=O)c1ccco1)C(=O)Nc1nc(-c2ccccc2)cs1 (configuration not stated)	8%	-1%	6%	·	?	·
COc1ccccc1NC(=O)c1ccc(C(=O)Nc2ccccc2OC)nc1	-4%	1%	5%	5%	-5%	3%
Cn1nc(C(C)(C)C)cc1C(=O)NNC(=O)c1ccc(C(F)(F)F)cc1	-5%	13%	2%	10%	21µM*	0%
Cn1nc(C(C)(C)C)cc1C(=O)O	-1%	1%	1%	2%	3%	1%
CCc1cccc(-n2c(C)nc3c(cnn3-c3ccc(Cl)cc3)c2=O)c1	1%	0%	-1%	12%	16µM*	·
CCCSc1nc2c(cnn2-c2ccc(C)cc2)c(=O)[nH]1	-4%	-22%	1%	-14%	18µM*	14%
Cc1ccc(-n2c(C)nc3c(cnn3-c3ccc(F)cc3)c2=O)cc1	4%	-11%	-1%	-5%	15µM*	-2%
O=C(COC(=O)c1ccccc1OCc1ccc(F)cc1)NCC1CCCO1 (configuration not stated)	-2%	0%	0%	·	4%	?
C[C@@H]1C(c2ccccc2)=NN(c2ccc(Br)cc2)[C@H]1C(=O)N1CCOC1=O	0%	0%	8%	·	-4%	·
Cc1ccc(C)c(NC(=S)NNC(=O)c2csc3c2CCC(C)C3)c1 (configuration not stated)	-3%	?	-1%	-16%	21µM*	-15%
Cc1ccc(OCCOC(=O)c2cc(S(=O)(=O)N3CCCCC3)ccc2N2CCOCC2)cc1	-4%	-10%	2%	·	12µM*	10%
CC(C)OCCCN(Cc1ccco1)C(=O)c1cc2c(s1)-c1ccccc1OC2	-5%	7%	0%	5%	16µM*	·
COC(=O)c1ccccc1NC(=O)CSc1nc(C)c(Cl)c(C)c1C#N	-3%	-3%	1%	-1%	·	0%
CCOC(=O)c1ccccc1NC1c2ccccc2C(=O)N1C1CCN(C(=O)OCC)CC1 (configuration not stated)	-5%	3%	4%	-10%	16µM*	35µM*
CCOC(=O)N1CCC(N2C(=O)c3ccccc3C2Nc2ccccc2C)CC1 (configuration not stated)	0%	-2%	4%	-4%	12%	3%
Cc1ccnc(Nc2ccc(CCO)cc2)n1	-6%	·	0%	·	·	·
COc1ccc(-c2cc(C3CC3)nc3sc(C#N)c(N)c23)cc1	-1%	0%	0%	0%	?	13µM*
Cc1ccc(S(=O)(=O)CCC(=O)N2CCN(c3ccc([N+](=O)[O-])cc3)CC2)cc1	-4%	-5%	2%	-1%	21µM*	32%
CC1(C(=O)N2CCN(c3ccc([N+](=O)[O-])cc3)CC2)CC1(Cl)Cl (configuration not stated)	-3%	-25%	3%	21%	18µM*	10%
CC1(C(=O)N2CCN(c3ccccc3)CC2)CC1(Cl)Cl (configuration not stated)	-2%	18%	-1%	-1%	-5%	2%
O=C(NCCn1cc(SCc2ccc(Cl)cc2)c2ccccc21)c1cccs1	-2%	-19%	0%	?	?	·
Oc1ccc(NCc2ccc(OCc3ccccc3Cl)cc2)cc1	?	?	7.9µM*	1%	?	·
Clc1ccc(-c2nc3ccccn3c2CN2CCOCC2)cc1	0%	·	4%	-24%	9%	18%
CCOc1ccccc1NC(=O)Cn1c(=O)nc(-c2ccccc2F)c2cc(Cl)ccc21	-3%	?	3%	0%	·	·

Quoted at random: 4 records from the list
SMILES	GRP78 ERSR act	A549 viability	Nrf2 ARE act	miR-21 reporter	Nrf2 inh	Mito fusion act
CCCSc1nc2c(cnn2-c2ccc(C)cc2)c(=O)[nH]1	-4%	-22%	1%	-14%	18µM*	14%
COc1ccccc1NC(=O)c1ccc(C(=O)Nc2ccccc2OC)nc1	-4%	1%	5%	5%	-5%	3%
Cc1ccc(S(=O)(=O)CCC(=O)N2CCN(c3ccc([N+](=O)[O-])cc3)CC2)cc1	-4%	-5%	2%	-1%	21µM*	32%
Clc1ccc(-c2nc3ccccn3c2CN2CCOCC2)cc1	0%	·	4%	-24%	9%	18%

Compound profiles (already shown).
CC1(C(=O)N2CCN(c3ccccc3)CC2)CC1(Cl)Cl (configuration not stated) is listed as GRP78 ERSR act = -2%; A549 viability = 18%; Nrf2 ARE act = -1%; miR-21 reporter = -1%; Nrf2 inh = -5%; Mito fusion act = 2%
O=C(NCCn1cc(SCc2ccc(Cl)cc2)c2ccccc21)c1cccs1 is listed as GRP78 ERSR act = -2%; A549 viability = -19%; Nrf2 ARE act = 0%; miR-21 reporter = ?; Nrf2 inh = ?; Mito fusion act = ·

Next section.
SMILES	GRP78 ERSR act	A549 viability	Nrf2 ARE act	miR-21 reporter	Nrf2 inh	Mito fusion act
CN(CC(=O)Nc1c(Cl)cccc1Cl)C(=O)c1ccccc1SCC(=O)N1CCCC1	-4%	11%	0%	-2%	4%	2%
CN(CCOc1ccc(Cl)cc1)C(=O)c1ccccc1SCC(=O)N1CCCC1	-3%	-15%	0%	·	13µM*	2%
CCOC(=O)C1(C)CCN1C(=O)c1cccc(Cl)c1 (configuration not stated)	0%	·	0%	·	·	·
CCSc1nnc(SCC(=O)c2c(N)n(C)c(=O)n(C)c2=O)s1	-2%	-1%	0%	·	21µM*	1%
Cc1cccc(OCc2nc(C#N)c(NCc3ccc4c(c3)OCO4)o2)c1	-1%	-5%	0%	-30%	-9%	7.1µM*
COc1ccc(CNc2oc(COc3cccc(C)c3)nc2C#N)cc1	2%	?	4%	23%	14%	·
CCOC(=O)c1csc(NC(=O)C2CCCCC2)n1	1%	-2%	5%	-47%	2%	1%
O=c1cc2c(nn1Cc1ccccc1Cl)-c1ccccc1CC2	1%	-2%	4%	-16%	5%	20µM*
O=C(c1cccc(Cl)c1)N1CCN(C2CCCCCC2)CC1	-5%	12%	-1%	-11%	·	3%
C=C1C(=O)C=C2CN(C(=O)c3ccccc3)[C@@](Cc3ccc(F)cc3)(C(=O)OC)[C@@H]12	-12%	10µM*	-3%	27%	13µM*	-1%
CCc1cc2c(=O)n(Cc3ccco3)c(SCC(=O)N3CCCc4ccccc43)nc2s1	-1%	-28%	6%	-7%	26µM*	0%
CCc1cc2c(=O)n(Cc3ccco3)c(SCC(=O)NCC3CCCO3)nc2s1 (configuration not stated)	-2%	-14%	4%	7%	?	0%
Cn1nc(-c2cccnc2)nc2c(=O)n(C)c(=O)nc1-2	-9%	6.5µM*	·	·	7.3µM*	·
Cn1nc(-c2ccccc2)nc1-c1ccccc1	0%	5%	20%	·	?	2%
Cc1cc(C)n2nc(-c3cccnc3)nc2n1	2%	2%	1%	-15%	·	4%
Cn1nc(-c2ccc(F)cc2)nc2c(=O)n(C)c(=O)nc1-2	-11%	2.9µM*	·	·	2.3µM*	·
COc1ccc(-c2nc3c(=O)n(C)c(=O)nc-3n(C)n2)cc1	-10%	1.6µM*	·	·	1.5µM*	·
CCn1nc(-c2ccccc2C)nc2c(=O)n(C)c(=O)nc1-2	-9%	23µM*	·	·	2%	·
CN(c1ccccc1)S(=O)(=O)c1cccc(NC(=O)CN2C(=O)NC3(CCCCC3)C2=O)c1	-4%	1%	0%	·	?	-4%
O=C(NC1CC1)c1cc2ccccc2o1	-1%	-2%	0%	-17%	0%	-1%
